From article PMC4585029, “Agonist and antagonist effects of tobacco-related nitrosamines on human α4β2 nicotinic acetylcholine receptors” (Frontiers in Pharmacology, 2015)

Chains of the proteins cited; added tags and fusions are not shown. Residues count along the entry.
UniProt P17787, 26-502: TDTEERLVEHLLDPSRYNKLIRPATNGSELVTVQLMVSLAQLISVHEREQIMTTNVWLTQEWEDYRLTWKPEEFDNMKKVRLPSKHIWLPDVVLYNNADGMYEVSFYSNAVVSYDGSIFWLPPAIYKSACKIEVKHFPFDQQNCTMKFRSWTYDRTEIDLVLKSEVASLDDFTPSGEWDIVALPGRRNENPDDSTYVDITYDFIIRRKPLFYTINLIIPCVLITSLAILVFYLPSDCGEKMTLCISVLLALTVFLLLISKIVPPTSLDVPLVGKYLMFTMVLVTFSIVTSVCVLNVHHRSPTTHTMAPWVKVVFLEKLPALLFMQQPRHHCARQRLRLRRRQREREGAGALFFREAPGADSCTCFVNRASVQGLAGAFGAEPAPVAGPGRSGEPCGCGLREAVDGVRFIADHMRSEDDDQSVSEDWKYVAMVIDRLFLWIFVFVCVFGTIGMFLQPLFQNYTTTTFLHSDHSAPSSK
UniProt P43681, 29-627 limits assumed: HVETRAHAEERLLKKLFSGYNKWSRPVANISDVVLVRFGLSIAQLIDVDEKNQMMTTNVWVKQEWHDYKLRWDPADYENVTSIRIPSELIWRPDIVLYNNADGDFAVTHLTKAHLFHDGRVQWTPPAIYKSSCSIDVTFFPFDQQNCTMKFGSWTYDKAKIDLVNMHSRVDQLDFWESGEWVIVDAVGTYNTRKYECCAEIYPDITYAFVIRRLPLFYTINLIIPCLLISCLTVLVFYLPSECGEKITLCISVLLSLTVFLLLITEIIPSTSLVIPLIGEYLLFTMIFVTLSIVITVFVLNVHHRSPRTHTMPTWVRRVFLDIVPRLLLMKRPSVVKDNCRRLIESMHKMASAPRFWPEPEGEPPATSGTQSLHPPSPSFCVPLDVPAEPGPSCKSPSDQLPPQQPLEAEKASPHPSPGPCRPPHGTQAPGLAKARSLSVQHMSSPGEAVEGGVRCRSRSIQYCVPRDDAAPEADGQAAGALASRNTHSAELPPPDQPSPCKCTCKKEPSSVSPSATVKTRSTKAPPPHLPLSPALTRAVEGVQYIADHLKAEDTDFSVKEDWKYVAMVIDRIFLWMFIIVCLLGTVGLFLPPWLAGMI

Molecular target: T1, human α4β2 nAChRs (Homo sapiens, UniProt P17787+P43681)
T1 construct: expressed in transfected cells
Assay type: cell-based
Details: −80 mV
Description: HEK 293 cells stably expressing human α4β2 nAChRs were cultured by standard methods (Di Resta et al., [2010]). In brief, cultures were maintained in Dulbecco's modified Eagle's medium (Hyclone Laboratories), supplemented with 10% fetal calf serum (Hyclone), 4.5 g/l glutamine, […] hygromycin β, and 0.25 μg/ml amphoterycin B. Cells were grown at 37°C and 5% CO2. For patch-clamp experiments, cells were harvested by treatment with trypsin and plated onto 35 mm Petri dishes (Corning Inc.).
Cells were voltage-clamped by using the whole-cell configuration of the patch-clamp method. Currents were registered with an Axopatch 200B amplifier (Molecular Devices), at room temperature (20–22°C). Micropipettes (3–4 MΩ) were pulled from borosilicate capillaries (GMBH) with a P-97 Flaming/Brown Micropipette Puller (Sutter Instrument Co.). The cell capacitance and series resistance (up to about 75%) were always compensated. Currents were low-pass filtered at 2 kHz and acquired on-line at 5–10 kHz with Molecular Devices hardware and software (pClamp 8 and Axoscope 8). […]
Data were analyzed with Clampfit 9.2 (Molecular Devices) and OriginPro 9 (OriginLab Co.). Theoretical curves best fitting the data were determined by a nonlinear least-squares method (Levenberg-Marquardt algorithm). […]

Question: How did the “block of agonist-activated currents” value (1 μM DHβE, agonists NNK (10 μM), nicotine (300 μM), ACh (300 μM)) turn out when `CO[C@H]1CC=C2CCN3CCC4=C(CC(=O)OC4)[C@]23C1` [DHβE, dihydro-β-erythroidine, reference compound] was run?
Answer: The value was “more than 90%”.

Question: And the “average peak current density” value (10 μM NNK plus 1 μM DHβE, n = 9)?
Answer: Its value is 0.53 ± 0.199 pA/pF.
